Experimental data: patent publication US4610816A (Schering Corporation, priority 1981, dated 1986)

By UniProt entry, the sequences of proteins in these tests, tags left out.
UniProt P07861, whole entry: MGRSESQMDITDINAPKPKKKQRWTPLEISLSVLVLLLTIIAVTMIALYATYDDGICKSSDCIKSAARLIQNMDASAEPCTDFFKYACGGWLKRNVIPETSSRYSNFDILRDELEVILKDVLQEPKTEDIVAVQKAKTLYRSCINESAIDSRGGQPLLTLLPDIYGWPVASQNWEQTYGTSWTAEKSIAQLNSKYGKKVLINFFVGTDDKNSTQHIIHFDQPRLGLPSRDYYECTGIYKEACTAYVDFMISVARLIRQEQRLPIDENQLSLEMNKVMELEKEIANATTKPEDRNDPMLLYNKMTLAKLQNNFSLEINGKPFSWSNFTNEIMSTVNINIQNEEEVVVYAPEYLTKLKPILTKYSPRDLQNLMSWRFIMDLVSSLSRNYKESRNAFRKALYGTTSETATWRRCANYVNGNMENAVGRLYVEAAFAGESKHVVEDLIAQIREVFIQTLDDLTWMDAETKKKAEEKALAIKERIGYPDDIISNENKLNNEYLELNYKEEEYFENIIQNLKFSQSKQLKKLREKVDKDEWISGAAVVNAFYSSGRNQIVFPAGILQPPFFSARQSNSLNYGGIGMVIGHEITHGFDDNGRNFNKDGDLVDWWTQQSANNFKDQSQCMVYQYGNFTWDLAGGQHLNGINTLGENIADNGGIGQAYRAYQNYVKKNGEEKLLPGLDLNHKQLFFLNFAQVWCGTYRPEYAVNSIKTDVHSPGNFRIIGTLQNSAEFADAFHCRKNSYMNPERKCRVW

Tests used:
Male CFl mice = experiment: Potentiation of the analgesic effects of (DAla2-Met5)-enkephalinamide (DAEAM), tail-flick test; settings: mouse tail-flick; for DAEAM Potentiation ED50 (route): DAEAM icv, latency 30 min later; for DAEAM Potentiation ED100 (route): footnote 2: value is ED100
enkephalinase A = enkephalinase A (Rattus norvegicus, UniProt P07861); experiment: Enkephalinase A inhibition, radiometric 3H-Met5-ENK degradation assay with TLC separation; format: biochemical, Sprague-Dawley rats; settings: read-out: Enkephalinase A Inhibition IC50; rat brain membrane enzyme, 40 nM 3H-Met5-ENK, 90 min at 37° C.; N.A. = No activity at <10^5 nM
[1] = po, dose at which half the test animals displayed analgesia

Structure (SMILES)	IC50 (enkephalinase A)	other results
CC(CNC(=O)[C@H](Cc1ccccc1)N[C@@H](Cc1ccccc1)C(=O)OCc1ccccc1)C(=O)OCOC(=O)C(C)(C)C (stereo partly shown)		DAEAM Potentiation ED50 (route) (Male CFl mice; [1]): 100 mg/k
Cc1ccc(C[C@H](N[C@@H](Cc2ccccc2)C(=O)NCCC(=O)O)C(=O)O)cc1 [AB]	29 nM	DAEAM Potentiation ED50 (route) (Male CFl mice; sc, dose at which half the test animals displayed analgesia): 10 mg/k
O=C(O)CCNC(=O)[C@H](Cc1ccccc1)N[C@@H](Cc1ccc2ccccc2c1)C(=O)O	16 nM	
O=C(O)C(CNC(=O)[C@H](Cc1ccccc1)N[C@@H](Cc1ccccc1)C(=O)O)Cc1ccccc1 (stereo partly shown)	6.3 nM	DAEAM Potentiation ED100 (route) (Male CFl mice; icv): 50 µg
CC(C)(C)C(=O)OCOC(=O)CCNC(=O)[C@H](Cc1ccccc1)N[C@@H](Cc1ccccc1)C(=O)O	580 nM	DAEAM Potentiation ED100 (route) (Male CFl mice; sc): 100 mg/k
CO[C@H](CNC(=O)[C@H](Cc1ccccc1)N[C@@H](Cc1ccccc1)C(=O)O)C(=O)O	52 nM	
CO[C@@H](CNC(=O)[C@H](Cc1ccccc1)N[C@@H](Cc1ccccc1)C(=O)O)C(=O)O	17 nM	
CC(CNC(=O)[C@H](Cc1ccccc1)N[C@@H](Cc1ccccc1)C(=O)O)C(=O)O (stereo partly shown)	6.4 nM	DAEAM Potentiation ED50 (route) (Male CFl mice; icv): 50 µg
O=C(O)CCNC(=O)[C@H](Cc1ccc2ccccc2c1)N[C@@H](Cc1ccccc1)C(=O)O	46 nM	
O=C(O)CCNC(=O)[C@H](Cc1ccccc1)N[C@@H](Cc1cccc2ccccc12)C(=O)O	5 nM	
O=C(O)CCNC(=O)[C@H](Cc1cccc2ccccc12)N[C@@H](Cc1ccccc1)C(=O)O	90 nM	
CC(C)C[C@H](N[C@@H](Cc1ccccc1)C(=O)O)C(=O)N[C@@H](Cc1ccccc1)C(=O)O	140 nM	
CC(C)[C@H](N[C@@H](Cc1ccccc1)C(=O)N[C@@H](C)C(=O)O)C(=O)O	1340 nM	
O=C(O)CCNC(=O)[C@H](Cc1ccccc1)N[C@@H](Cc1ccc(Cl)cc1)C(=O)O	22 nM	
C[C@H](NC(=O)[C@H](Cc1ccccc1)N[C@@H](CSCc1ccccc1)C(=O)O)C(=O)O	170 nM	
C[C@H](NC(=O)[C@H](Cc1ccsc1)N[C@@H](CCc1ccccc1)C(=O)O)C(=O)O	140 nM	
C[C@H](NC(=O)[C@H](Cc1ccccc1)N[C@@H](CCCCNC(=O)OCc1ccccc1)C(=O)O)C(=O)O	220 nM	
C[C@H](NC(=O)[C@H](Cc1ccccc1)N[C@@H](CCc1ccccc1)C(=O)O)C(=O)O	90 nM	
Cc1ccccc1NC(=O)[C@H](Cc1ccccc1)N[C@@H](Cc1ccccc1)C(=O)NCCC(=O)OCOC(=O)C(C)(C)C		DAEAM Potentiation ED50 (route) (Male CFl mice; [1]): 100 mg/k
CCOC(=O)CCNC(=O)[C@H](Cc1ccccc1)N[C@@H](Cc1ccccc1)C(=O)OCOC(=O)C(C)(C)C		DAEAM Potentiation ED50 (route) (Male CFl mice; [1]): 100 mg/k
C[C@H](NC(=O)[C@H](Cc1cccc2ccccc12)N[C@@H](CCc1ccccc1)C(=O)O)C(=O)O	30 nM	
O=C(O)CCNC(=O)[C@H](Cc1ccc(-c2ccccc2)cc1)N[C@@H](Cc1ccccc1)C(=O)O [AD]		DAEAM Potentiation ED100 (route) (Male CFl mice; icv): 50 µg
O=C(O)CCCNC(=O)[C@H](Cc1ccccc1)N[C@@H](Cc1ccccc1)C(=O)O	55 nM	
CC(C)(C)C(=O)OCOC(=O)[C@H](Cc1ccccc1)N[C@@H](Cc1ccccc1)C(=O)NCCC(=O)OCc1ccccc1		DAEAM Potentiation ED50 (route) (Male CFl mice; [1]): 100 mg/k
